Source: PubChem BioAssay AID540303 (National Center for Advancing Translational Sciences (NCATS), 2011)
The entries are a selection whose mix differs from that of the whole data set. Records with an inconclusive call do not appear. Calls of active or inactive are those of the source. Calls follow the shape of the dose curve; as a rule, active = well fitted inhibition curve with a large enough effect; inconclusive = small, poorly fitted or top-dose-only effect; inactive = no such curve, though single readings can be large or run the other way; tested in mouse RAW 264.7 cells.

Test: qHTS for Inhibitors of Cell Surface uPA Generation; also: nearly all actives have a fitted effect of over 55% in size
Conditions: cell surface uPA generation assay; series mostly up to 38.3 µM; activity change, negative = inhibition: at the top concentration
Text: The overall objective of this project is to perform a quantitative high throughput screen (qHTS) to identify novel compounds that inhibit the generation of cell surface urokinase activity. The urokinase plasminogen activator (uPA) is one of the two primary endogenous systems that mediate plasminogen activation into plasmin. Members of this system, including uPA and its receptor (uPAR), are overexpressed in several malignant tumors. This system plays a major role in adhesion, migration, invasion and metastasis of cancer cells. Small molecule inhibitors of the uPA system will serve as probes to understand the molecular mechanisms of the uPA cascade and better understanding the microenvironmental circumstances that facilitate the activation of plasminogen by uPA, and finally may provide novel candidate agents for anticancer drug therapy.
[…] […] Upon inhibition of the uPA activation cascade, the subsequent cell surface uPA activity-dependent translocation of LF into the cytoplasm is inhibited. ATP-Lite is used to measure intracellular ATP concentrations, which remain increased if LF entry into the cytoplasm is inhibited. This validation assay was performed using a small set of validation compounds.
NIH Chemical Genomics Center [NCGC]
NIH Molecular Libraries Probe Centers Network [MLPCN]
Assay Submitter (PI): Thomas Bugge, National Institute of Dental and Craniofacial Research, NIH
Cultured RAW 264.7 were dispensed into 1536-well clear bottom, white walled tissue culture plates at a density of 4000 cells/well and were incubated overnight (12-16 h) at 37 C in a 5% CO2 incubator. Serially diluted compounds in 23 nl DMSO were added to cells. […] Compound and reagent-treated plates were incubated for 24 h at 37 C in a 5% CO2 incubator. Perkin Elmer ATPlitetrade mark 1 step (3 ul) was then added to each well. Luminescence was detected using a Perkin Elmer ViewLuxtrade mark plate reader.
1.Dispensing RAW 264.7 cells into 1536-well, white walled tissue culture plates at a density of 4000 cells/well (4 uL).
2.Incubation at 37 C in a 5% CO2 incubator overnight.
3.Serially diluting compounds (1:5 serial dilution; 0.0024 uM to […] final concentration) in 23 nl DMSO.
5.Incubating the compound and reagent-treated plates for 24 hours at 37 C in a 5% CO2 incubator.
6.Adding ATP-Lite (3 ul).
7.Reading plates by ViewLux with an exposure length of 5 seconds.
% is scaled to controls: 0 for no effect and ±100 for the full control effect.

SMILES | activity change, negative = inhibition
O=P1(N(CCCl)CCCl)OCCCS1 (configuration not stated) | inactive: -0.326%
O=C(Nc1cc([As](=O)(O)O)ccc1O)c1ccccc1 | inactive: -5.74%
CC(C)(C)C(=O)NC(Sc1ccncn1)C(Cl)(Cl)Cl (configuration not stated) | inactive: -9.51%
O=[N+]([O-])c1ncn(CCn2ncnc2[N+](=O)[O-])n1 | inactive: 4.66%
O=[N+]([O-])c1cccc(NC2=NCC(CBr)S2)c1 (configuration not stated) | inactive: 3.63%
COC(=O)C1(C)COP(=O)(Nc2ccccc2)OC1 (configuration not stated) | inactive: 6.12%
O=C(O)CNc1ccc([As](=O)(O)O)cc1 | inactive: 9.87%
COc1ccc(C2=NCC(CBr)S2)cc1 (configuration not stated) | inactive: 1.18%
CC(=O)N1C2C3N(C(C)=O)C1C1N(C(C)=O)C(C(N1C(C)=O)N3C(C)=O)N2C(C)=O | inactive: 2.84%
O=[N+]([O-])c1cccc2n[nH]nc12 | inactive: -4.14%
Cc1ccc(NP(=O)(Oc2ccccc2)Oc2ccccc2)nc1 | inactive: 0.908%
O=[N+]([O-])c1cc([N+](=O)[O-])c(CCNc2ccccc2)c([N+](=O)[O-])c1 | inactive: -5.99%
CCc1nc2c(n1)c1c(non1O)c1c2no[n+]1[O-] | inactive: -7.86%
Nc1ccc([As](=O)(O)c2ccc(N)cc2)cc1 | inactive: 0.407%
CCN(/C(=N/P(=O)(N1CCOCC1)N1CCOCC1)N1CCOCC1)c1ccc(OC)cc1 | inactive: 4.54%
CC(C)=N/N=C(\N)N[N+](=O)[O-] | inactive: -2.04%
CN(C)C(=O)OCCc1n(C)cc[n+]1C | inactive: 3.79%
CC1CCN(C(=O)Oc2c(Cl)cc(Cl)c3cccnc23)CC1 | inactive: 4.69%
NC(=O)c1cc([N+](=O)[O-])cc([N+](=O)[O-])c1N | inactive: -4.3%
Cc1ccc(N/C(=N/P(=O)(N2CCOCC2)N2CCOCC2)N2CCOCC2)cc1 | inactive: 5.64%
COc1ccccc1OP(=O)(Nc1ccc(C)cn1)Oc1ccccc1OC | inactive: 4.36%
Cc1ccc(OP(=O)(Nc2nccs2)Oc2ccc(C)cc2)cc1 | inactive: 8.12%
Clc1ccc(Cl)c(NC2=NCC(CBr)S2)c1 (configuration not stated) | inactive: 5.98%
CN1CCCC(OC(=O)C(c2ccccc2)c2ccccc2)C1 (configuration not stated) | inactive: 7.29%
CC(C)CC(=O)NC(Sc1ccc(Cl)cc1)C(Cl)(Cl)Cl (configuration not stated) | inactive: 7.74%

SMILES | activity change, negative = inhibition
Nc1cc(N)c2nonc2c1[N+](=O)[O-] | inactive: 0.505%
Oc1ccccc1CNc1ccccn1 | inactive: -2.33%
O=C(NC(Sc1ccncn1)C(Cl)(Cl)Cl)c1ccccc1 (configuration not stated) | inactive: 2.92%
O=C(O)c1ccccc1[As](=O)(O)O | inactive: 4.8%
CC(=O)Nc1ccc([As](=O)(O)O)cc1 | inactive: 1.48%
CCCC1OP(N)(=O)OCC1CC (configuration not stated) | inactive: -4.95%
O=P(Nc1nc2ccc(Cl)cc2s1)(c1ccccc1)c1ccccc1 | inactive: 2.41%
CCOP(=O)(Nc1ccccc1)OCC | inactive: 11%
Cc1cc(SC(NC(=O)c2ccc(F)cc2)C(Cl)(Cl)Cl)ncn1 (configuration not stated) | inactive: 5.72%
Cc1ccc(NP(=O)(Oc2ccccc2F)Oc2ccccc2F)nc1 | inactive: -0.757%
CCN(N=Nc1nonc1N)c1nonc1N | inactive: 11.1%
Nc1cccc2ccc([As](=O)(O)O)cc12 | inactive: 6.53%
O=C(NC1CCS(=O)(=O)C1)NP(=S)(Oc1ccccc1)Oc1ccccc1 (configuration not stated) | inactive: 0.448%
CCNC(=S)/N=C(\N)N[N+](=O)[O-] | inactive: -1.48%
c1ccc(-c2nn[nH]n2)c(-c2nn[nH]n2)c1 | inactive: 4.37%
Cc1ccc(NP(=O)(Oc2cccc(C)c2)Oc2cccc(C)c2)nc1 | inactive: -0.528%
O=P1(N(CCCl)CCCl)OCCC2CCCCN21 (configuration not stated) | inactive: -2.31%
COC(=O)c1cc2c(s1)N=C(c1ccccc1)N(C)P2(=O)N1CCOCC1 (configuration not stated) | inactive: -0.168%
Cc1ccc(OP(=O)(Nc2ccccn2)Oc2ccc(C)cc2)cc1 | inactive: 4.54%
CC(=O)NC(SC(=S)N(CC(C)C)CC(C)C)C(Cl)(Cl)Cl (configuration not stated) | inactive: -0.668%
O=C(OC1CN2CCC1CC2)c1ccccc1 (configuration not stated) | inactive: -14.2%
CCC(=O)N1C2C3N(C(=O)CC)C1C1N(C(=O)CC)C(C(N1C(=O)CC)N3C(=O)CC)N2C(=O)CC | inactive: 2.43%
Cc1ccccc1OP(=O)(Nc1ccccn1)Oc1ccccc1C | inactive: 8.73%
CC(NC(=O)COC(=O)C(O)(c1ccccc1)c1ccccc1)c1ccccc1 (configuration not stated) | inactive: 5.06%
CN(C)C(=O)Oc1noc2ccccc12 | inactive: -3.62%

SMILES | activity change, negative = inhibition
O=c1c2cc([N+](=O)[O-])ccc2[nH]c2c([N+](=O)[O-])cc([N+](=O)[O-])cc12 | inactive: -18.3%
O=P1(Nc2nc3ccc(Cl)cc3s2)COc2ccccc2O1 (configuration not stated) | inactive: -2.1%
CCOc1ccc(C2=NCC(CBr)S2)cc1 (configuration not stated) | inactive: 11.1%
CCc1cc(O)c([N+](=O)[O-])c(C)c1[N+](=O)[O-] | inactive: -0.862%
CC(C)(C)C(=O)NC(Sc1ccccc1)C(Cl)(Cl)Cl (configuration not stated) | inactive: -0.592%
N#C/C(=C\c1ccc(N(CCBr)CCBr)cc1)C(N)=O | inactive: -8.25%
CC(=O)c1ccc(N2CC2c2ccncc2)cc1 (configuration not stated) | inactive: -1.33%
COC(=O)C1(C)COP(=O)(NCc2ccccc2)OC1 (configuration not stated) | inactive: 2.03%
Cc1ccccc1CN(C)C(=O)COC(=O)C(O)(c1ccccc1)c1ccccc1 | inactive: 4.29%
C[C@@H]1C=CCP(=O)(Oc2ccccc2)O1 (some centres not stated) | inactive: 6.09%
C[C@H]1OP(=O)(Oc2ccccc2)C[C@@H]2O[C@@H]21 (some centres not stated) | inactive: -2.98%
CC(=O)Nc1ccc([As](=O)(O)O)c(O)c1 | inactive: -0.719%
CC(=O)Nc1ccc(Oc2c([N+](=O)[O-])cc([N+](=O)[O-])cc2[N+](=O)[O-])cc1 | inactive: 11.2%
O=P(Nc1nccs1)(c1ccccc1)c1ccccc1 | inactive: -5.43%
CC(C)C(=O)NC(Sc1ccccc1)C(Cl)(Cl)Cl (configuration not stated) | inactive: 11.5%
c1nnnn1CCn1cnnn1 | inactive: 6.54%
COc1ccc(N)c([N+](=O)[O-])c1[N+](=O)[O-] | inactive: 3.48%
CN(C)C1(CNC(=O)c2ccc(Cl)c(S(N)(=O)=O)c2)CCCCC1 | inactive: -0.774%
O=P(Nc1ccccn1)(c1ccc(Br)cc1)c1ccc(Br)cc1 | inactive: -4.25%
O=P(Nc1nc2ccccc2s1)(c1ccccc1)c1ccccc1 | inactive: 2.96%
C[C@H]1OP(=O)(Oc2ccccc2)[C@H](O)[C@H](O)[C@H]1N=[N+]=[N-] (some centres not stated) | inactive: 2.35%
O=[N+]([O-])c1ncn(CCn2cnc([N+](=O)[O-])n2)n1 | inactive: 3.4%
CC(=O)NC(SC(=S)N(C)C)C(Cl)(Cl)Cl (configuration not stated) | inactive: -5.97%
O=[As](O)(c1ccccc1)c1ccc(O)cc1 | inactive: 5.62%
Nc1ccc([As](=O)(O)c2ccc([N+](=O)[O-])cc2)cc1 | inactive: 0.858%

SMILES | activity change, negative = inhibition
C(Cc1nn[nH]n1)Cc1nn[nH]n1 | inactive: 2.93%
Cc1nn(-c2ccccc2)c2c1P(=O)(N1CCOCC1)N(C)C(c1ccccc1)=N2 (configuration not stated) | inactive: -0.692%
Cc1ccc(C(=O)OC2CN3CCC2CC3)cc1 (configuration not stated) | inactive: -3.74%
CC1CCC(C(C)C)C(OP(=O)(Nc2ccccn2)c2ccccc2)C1 (configuration not stated) | inactive: 1.13%
O=C(/C=C/c1ccccc1)OC1CN2CCC1CC2 (configuration not stated) | inactive: 14.1%
CCCC1OP(=O)(Nc2ccccc2)OCC1CC (configuration not stated) | inactive: -4.82%
CN(C)C1(CNC(=O)c2ccc(S(C)(=O)=O)cc2)CCCCC1 | inactive: 2.12%
O=P1(Nc2ncccn2)COc2ccccc2OC1 | inactive: 2.71%
NS(=O)(=O)c1cccc(NC(=O)COC(=O)C(O)(c2ccccc2)c2ccccc2)c1 | inactive: 5.21%
O=P1(Nc2ccc(Br)cn2)COc2ccccc2OC1 | inactive: 3.01%
O=[As](O)(c1cccs1)c1cccs1 | inactive: -9.36%
Cc1ccc(OCC(=O)OC2CN3CCC2CC3)cc1 (configuration not stated) | inactive: 5.83%
Nc1cccc([As](=O)(O)c2ccccc2)c1 | inactive: -18.3%
CN(CCCl)Cc1cc(Cl)c(NC2=NCCN2)c(Cl)c1 | inactive: -8.59%
CCOP(=O)(Nc1ccc(C)cn1)OCC | inactive: -8.97%
O=P1(Nc2ccccn2)COc2ccccc2OC1 | inactive: 1.13%
CCOP(=O)(NC(=NC(C)c1ccccc1)NC(C)c1ccccc1)OCC (configuration not stated) | inactive: 0.0711%
Clc1n[nH]nc1-c1nn[nH][15n]1 | inactive: 1.08%
CC(C)(C)C(=O)NC(Sc1ncccn1)C(Cl)(Cl)Cl (configuration not stated) | inactive: 0.467%
COc1ccccc1CNC(=O)COC(=O)C(O)(c1ccccc1)c1ccccc1 | inactive: 9.2%
CC1(CBr)Cn2c(nc3ccccc3c2=O)S1 (configuration not stated) | inactive: 0.0827%
COc1cc(C(=O)NCC2(N3CCOCC3)CCCCC2)cc(Cl)c1OC(C)C | inactive: 0.656%
O=[As](O)(O)c1cccnc1 | inactive: 2.96%
CS(=O)(=O)c1ccc(Cl)c(NC(=O)COC(=O)C(O)(c2ccccc2)c2ccccc2)c1 | inactive: 22.1%
O=C(OC1CN2CCC1CC2)c1ccc(Cl)cc1 (configuration not stated) | inactive: -1.58%

SMILES | activity change, negative = inhibition
O=[As](O)(c1cccc(O)c1)c1cccc(O)c1 | inactive: 0.75%
Cc1cccc(OCC(=O)OC2CN3CCC2CC3)c1 (configuration not stated) | inactive: -1.24%
CCCOP(=S)(Nc1nc(N)cc(=O)[nH]1)OCCC | inactive: -1.06%
Nc1cccc2c([As](=O)(O)O)cccc12 | inactive: -1.11%
Cc1ccc(NCCc2c([N+](=O)[O-])cc([N+](=O)[O-])cc2[N+](=O)[O-])cc1 | inactive: -7.42%
COc1cc(C2NCCC3(OCCO3)C2(C)C)cc(OC)c1OC (configuration not stated) | inactive: -3.09%
CCOP(=O)(Nc1cccc2ccccc12)OCC | inactive: 0.471%
CS(=O)(=O)c1cc([N+](=O)[O-])c2no[n+]([O-])c2c1 | inactive: -2.83%
CCOP1(=S)c2c(C)nn(CCC#N)c2N=C(c2ccccc2F)N1C (configuration not stated) | inactive: -2.18%
O=P(Nc1nccs1)(c1ccccc1)c1nc2ccccc2s1 (configuration not stated) | inactive: -2.85%
O=P(Nc1nccs1)(Oc1ccccc1)Oc1ccccc1 | inactive: 8.95%
O=C(O)COc1ccc([As](=O)(O)O)cc1[N+](=O)[O-] | inactive: 6.25%
Nc1ccccc1[As](=O)(O)c1ccccc1 | inactive: -2.6%
NC(=O)Nc1ccc([As](=O)(O)O)cc1 | inactive: 10.4%
CN(C)C(=O)c1cc([N+](=O)[O-])cc2c1-c1c(cc([N+](=O)[O-])cc1[N+](=O)[O-])C2=O | inactive: -14%
N#CCCN(C(=O)COC(=O)C(O)(c1ccccc1)c1ccccc1)c1ccc(F)cc1 | inactive: 2.89%
CCOP1(=S)c2c(C)nn(CCC#N)c2N=C(c2ccc(F)cc2)N1C (configuration not stated) | inactive: 6.29%
CN(C(=O)Cc1ccccc1)[C@@H]1CC[C@]2(CCCO2)C[C@H]1N1CCCC1 | inactive: -1.71%
O=[As](O)(c1ccc(O)cc1)c1ccccc1O | inactive: 3.14%
C[As](=O)(O)c1cccc(C(=O)O)c1 | inactive: 8.5%
COc1cc(C(=O)NCC2(N3CCOCC3)CCCCC2)ccc1OCC(C)C | inactive: 11.2%
O=[N+]([O-])c1ccc(-c2cc([N+](=O)[O-])c(O)c([N+](=O)[O-])c2)cc1 | inactive: -3.01%
